Results from article PMC7763843, “Cytochrome P450 Expression and Chemical Metabolic Activity before Full Liver Development in Zebrafish” (Pharmaceuticals, 2020).
Counter-ions that a name gives are not always drawn.

Experiments:
[1] = tested on: cyp2y3 mRNA; settings: 55 hpf larvae; exposure from 30 hpf; 100 µM rifampicin or phenobarbital
Method: (§1) Embryos were dechorionized, except in the case of those exposed to TCDD due to high transparency. […] 1,7-Dimethylxanthine, 4′-OHDF, 5-OHDF, and 6β-hydroxytestosterone were obtained from Sigma-Aldrich. DMSO was purchased from Nacalai Tesque (Kyoto, Japan).
Whole-mount in situ hybridization was performed as described previously. Paraformaldehyde-fixed embryos were hybridized with digoxigenin-incorporated antisense RNA probes of CYP subtypes at 65 °C overnight (DIG (digoxigenin) RNA Labeling Kit, Sigma-Aldrich). To obtain the CYP probes, CYP DNAs were amplified by PCR reaction with KOD FX Neo enzyme solution (Toyobo) with the primer sets listed in Table S2. This was followed by subcloning to pTAC2 TA vector (BioDynamics, Tokyo, Japan) and in vitro transcription with SP6 RNA polymerase (New England Biolabs, Ipswich, MA, USA). Following hybridization and washing, the embryos were incubated with anti-DIG antibody conjugated with alkaline phosphatase (Sigma-Aldrich) at 4 °C overnight. The color reaction was performed by incubation in BM Purple substrate or Fast Red (Sigma-Aldrich).

[2] = tested on: cyp2n13, 2r1, 2y3, and 3a65; assay: qPCR of CYP subtypes in 55 hpf larvae after inducer exposure; settings: 100 µM
Excerpt: as §1

[3] = cited from earlier work

Structure (SMILES) | cyp2y3 mRNA by in situ hybridization (liver and intestine locations) [1] | Significant induction of cyp2n13, 2r1, 2y3, and 3a65 by qPCR [2] | Detection of the two metabolites of diclofenac ([3]; adult zebrafish liver microsomes, 1 h exposure) | Detection of the two metabolites of diclofenac, batches positive ([3]; microsomes of whole zebrafish larvae, only at 96 hpf)
CO[C@H]1/C=C/O[C@@]2(C)Oc3c(C)c(O)c4c(O)c(c(/C=N/N5CCN(C)CC5)c(O)c4c3C2=O)NC(=O)/C(C)=C\C=C\[C@H](C)[C@H](O)[C@@H](C)[C@@H](O)[C@@H](C)[C@H](OC(C)=O)[C@@H]1C [rifampicin] | detectable | not recognized | – | –
O=C(O)Cc1ccccc1Nc1c(Cl)cccc1Cl [diclofenac, diclofenac sodium salt] | – | – | detected | two of five batches
